Measured affinities in a library of Ab-14 light chain variants

Target: peptide PDVDLGDISGINAS, taken from heptad repeat 2 (HR2) of SARS-CoV-2 spike.

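The variants were designed computationally from a first round of random CDR variants and then made and measured. Their group label is 14L_En_Gibbs (En: ensemble of fine-tuned language models; Gibbs: Gibbs sampling). Affinity was read by AlphaSeq, a pooled yeast mating assay with surface-displayed partners. The frequency of each diploid, read from paired DNA barcodes, reflects how well the two displayed proteins bind. Read counts were normalised to the haploid input and turned into Kd by a linear fit to BCL2-family pairs of known affinity, for each replicate. Mating was done six times.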

The variants keep the heavy chain, the linker and the frameworks of Ab-14 (scFv order VH, three GGGGS repeats, VL).
VH: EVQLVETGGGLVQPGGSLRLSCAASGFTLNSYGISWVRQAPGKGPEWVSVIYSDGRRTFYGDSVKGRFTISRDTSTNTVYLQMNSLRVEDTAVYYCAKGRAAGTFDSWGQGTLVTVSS
VL: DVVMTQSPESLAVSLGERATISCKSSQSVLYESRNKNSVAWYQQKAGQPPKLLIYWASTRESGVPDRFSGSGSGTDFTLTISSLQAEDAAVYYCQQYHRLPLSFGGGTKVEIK

The whole VL of each variant is written out. Scale: log10 of Kd in nM, estimated from mating counts; low values are strong binders. The mean shown is taken over the replicates in which the pair was detected. "n.d." marks a missing value. The strain was present, yet no cells mated with the target were sequenced in that replicate, which points to weak or no binding.

{"VL": "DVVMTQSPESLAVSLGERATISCQLATEVIDNQKLRNSIAWYQQKAGQPPKLLIYENELRAMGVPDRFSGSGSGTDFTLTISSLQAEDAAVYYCQQYLMLPLSFGGGTKVEIK", "replicates, log10 nM": "1.14 / 0.39 / 0.87 / 0.29 / 0.25 / 0.74", "mean, log10 nM": "0.61", "signal with controls": "0 of 18"}
{"VL": "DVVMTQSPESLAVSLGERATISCALALTLHQNESNQSNIAWYQQKAGQPPKLLIYQVMEREVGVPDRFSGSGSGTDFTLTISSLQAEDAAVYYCQQYNRLPLGFGGGTKVEIK", "replicates, log10 nM": "2.08 / 2.57 / 2.07 / 1.77 / 2.56 / 2.29", "mean, log10 nM": "2.22", "signal with controls": "1 of 18 (2.08)"}
{"VL": "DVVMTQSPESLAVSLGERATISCRYQMDDNSGEGMRNNVAWYQQKAGQPPKLLIYDGAEVRMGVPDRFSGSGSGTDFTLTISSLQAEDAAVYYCQQYARLPLWFGGGTKVEIK", "replicates, log10 nM": "1.91 / 2.48 / 2.63 / n.d. / 2.63 / n.d.", "mean, log10 nM": "2.41", "signal with controls": "1 of 18 (2.02)"}
{"VL": "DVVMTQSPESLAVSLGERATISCNFSMSAATFVNEWSSIAWYQQKAGQPPKLLIYDAEISYDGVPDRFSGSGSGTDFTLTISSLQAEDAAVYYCQQYHRLPLVFGGGTKVEIK", "replicates, log10 nM": "2.00 / n.d. / 4.74 / 2.37 / 2.57 / 2.28", "mean, log10 nM": "2.79", "signal with controls": "3 of 18 (2.71)"}
{"VL": "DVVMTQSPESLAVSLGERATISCSLTRFNLQNQGNSNNIAWYQQKAGQPPKLLIYDTNQTQEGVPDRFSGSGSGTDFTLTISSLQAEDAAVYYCQQYFRLPFAFGGGTKVEIK", "replicates, log10 nM": "0.07 / -0.15 / -0.31 / -0.35 / -0.12 / -0.09", "mean, log10 nM": "-0.16", "signal with controls": "2 of 18 (2.61)"}
{"VL": "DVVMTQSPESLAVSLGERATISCQFARAMYHGGNDNQNIAWYQQKAGQPPKLLIYDAMTYIKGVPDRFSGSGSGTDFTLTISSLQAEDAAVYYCQQYSRLPLFFGGGTKVEIK", "replicates, log10 nM": "1.27 / n.d. / n.d. / n.d. / 1.50 / n.d.", "mean, log10 nM": "1.39", "signal with controls": "0 of 18"}
{"VL": "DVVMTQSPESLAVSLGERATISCNISYEQALSTYSVNNVAWYQQKAGQPPKLLIYQASVRAPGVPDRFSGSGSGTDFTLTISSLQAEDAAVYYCQYYQRLPLVFGGGTKVEIK", "replicates, log10 nM": "0.53 / 0.49 / 0.30 / 0.23 / 0.21 / 0.52", "mean, log10 nM": "0.38", "signal with controls": "0 of 18"}
{"VL": "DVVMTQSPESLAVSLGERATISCNLVSKADYMDSERQNIAWYQQKAGQPPKLLIYNMDTRNTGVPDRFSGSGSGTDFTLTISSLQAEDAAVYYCQQYFHLPLTFGGGTKVEIK", "replicates, log10 nM": "0.03 / -0.01 / 0.66 / 0.03 / 0.03 / 0.56", "mean, log10 nM": "0.22", "signal with controls": "0 of 18"}
{"VL": "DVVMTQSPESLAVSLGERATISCVLHNTCSDYDMYRNSIAWYQQKAGQPPKLLIYDAQHREAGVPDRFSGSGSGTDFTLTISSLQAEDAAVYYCQQYYRLPFTFGGGTKVEIK", "replicates, log10 nM": "0.29 / 0.48 / 0.35 / 0.33 / 1.10 / 0.49", "mean, log10 nM": "0.51", "signal with controls": "3 of 18 (2.19)"}
{"VL": "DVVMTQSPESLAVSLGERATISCKIHMGWEMGSRWNDNIAWYQQKAGQPPKLLIYEANLRFSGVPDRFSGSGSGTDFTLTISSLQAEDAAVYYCQQYNRLPLFFGGGTKVEIK", "replicates, log10 nM": "1.58 / 1.03 / 0.51 / 1.42 / 1.82 / 1.36", "mean, log10 nM": "1.29", "signal with controls": "0 of 18"}
{"VL": "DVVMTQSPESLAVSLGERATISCFMEMDFQENSGRGSSIAWYQQKAGQPPKLLIYSEEVKTTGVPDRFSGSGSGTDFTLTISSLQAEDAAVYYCQQYGRLPLSFGGGTKVEIK", "replicates, log10 nM": "n.d. / 1.08 / 1.81 / 1.50 / 1.12 / 1.68", "mean, log10 nM": "1.44", "signal with controls": "1 of 18 (1.98)"}
{"VL": "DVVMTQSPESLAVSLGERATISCRLTEHYFMRADQNHAVAWYQQKAGQPPKLLIYDASTRNDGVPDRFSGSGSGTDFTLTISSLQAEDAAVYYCQQYHRLPLWFGGGTKVEIK", "replicates, log10 nM": "0.58 / 0.26 / 0.13 / 0.15 / 0.17 / 0.48", "mean, log10 nM": "0.29", "signal with controls": "1 of 18 (3.49)"}
{"VL": "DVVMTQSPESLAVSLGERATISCSIETLSQGMRLNWSAVAWYQQKAGQPPKLLIYEAHTLYQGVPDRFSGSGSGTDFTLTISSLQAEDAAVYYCQYYARLPLSFGGGTKVEIK", "replicates, log10 nM": "n.d. / n.d. / n.d. / 2.83 / 3.72 / n.d.", "mean, log10 nM": "3.28", "signal with controls": "0 of 18"}
{"VL": "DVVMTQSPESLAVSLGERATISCHVSSMLMAGGGIYNSIAWYQQKAGQPPKLLIYGTKVLERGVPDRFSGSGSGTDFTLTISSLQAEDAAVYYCQQYMRLPLMFGGGTKVEIK", "replicates, log10 nM": "0.67 / 0.33 / 0.30 / 0.24 / 0.55 / -0.01", "mean, log10 nM": "0.35", "signal with controls": "0 of 18"}
{"VL": "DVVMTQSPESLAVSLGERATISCSTTSHEEESEGAHASVAWYQQKAGQPPKLLIYEASMLESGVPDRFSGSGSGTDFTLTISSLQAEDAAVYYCQQYHRLPLMFGGGTKVEIK", "replicates, log10 nM": "1.27 / 2.37 / 0.70 / 2.91 / 0.79 / 1.52", "mean, log10 nM": "1.59", "signal with controls": "0 of 18"}
{"VL": "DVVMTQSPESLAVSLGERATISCQIAETNMQVGIGANAIAWYQQKAGQPPKLLIYNATVRPAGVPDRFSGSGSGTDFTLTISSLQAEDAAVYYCQQYLRLPLMFGGGTKVEIK", "replicates, log10 nM": "0.40 / 0.54 / 0.29 / 0.29 / 0.54 / 0.64", "mean, log10 nM": "0.45", "signal with controls": "1 of 18 (3.50)"}

Repeated from above, the 2 best binders with a signal in all replicates:

VL,"replicates, log10 nM","mean, log10 nM",signal with controls
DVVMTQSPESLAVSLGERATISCSLTRFNLQNQGNSNNIAWYQQKAGQPPKLLIYDTNQTQEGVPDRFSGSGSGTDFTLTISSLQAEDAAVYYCQQYFRLPFAFGGGTKVEIK,0.07 / -0.15 / -0.31 / -0.35 / -0.12 / -0.09,-0.16,2 of 18 (2.61)
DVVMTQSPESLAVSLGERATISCNLVSKADYMDSERQNIAWYQQKAGQPPKLLIYNMDTRNTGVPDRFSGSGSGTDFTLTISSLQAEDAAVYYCQQYFHLPLTFGGGTKVEIK,0.03 / -0.01 / 0.66 / 0.03 / 0.03 / 0.56,0.22,0 of 18

Nonspecific signal, from three strains lacking the peptide, appeared in 4% of pairings of all light chain designs, centred on 2.64 (5% of these signals below 1.59); values are not corrected for it. The control count says in how many pairings with the empty strains this scFv gave a signal, with their mean in brackets. A sequence measured in both rounds can read differently, since the two assays cover different ranges. In the paper, a design with two or fewer of six values counts as a poor binder. The parent sequence was in this pool as ten entries: three were never detected, three once, and four in most replicates, with averages from 0.34 to 2.37.

Data: MIT Lincoln Laboratory AlphaSeq set, Li et al. 2023, doi:10.1038/s41467-023-39022-2, as distributed in FLAb.